Results from US10159656B2, “Methods for use of epinephrine fine particles for treatment of conditions responsive to epinephrine” (NOVA SOUTHEASTERN UNIVERSITY, priority 2013, dated 2018).
Values joined by “and” are separate entries in the source; they are usually repeats but may differ in a detail not shown here. Equal values may be shown once. Read-outs that look alike come from different tables or passages of the source.

Conditions: after processing, one cycle at 30,000 Psi

CNC[C@H](O)c1ccc(O)c(O)c1.O=C(O)C(O)C(O)C(=O)O [EpiBit After Processing, epinephrine bitartrate microcrystals]
Pdi (polydispersity index): 0.185 and 0.187 and 0.202 | Pdi (polydispersity index) (listed as EpiBit crystals after processing): 0.185±0.019
